Measured values reported in paper PMC5732813, “Novel piplartine-containing ruthenium complexes: synthesis, cell growth inhibition, apoptosis induction and ROS production on HCT116 cells” (Oncotarget, 2017).

Legend:
[1] = 31P{1H} NMR; for stability in coordinating solvents: DMSO, methanol or DMF; for stability in noncoordinating solvents: acetone, dichloromethane or chloroform
[2] = methanol/water solution (57/43)

Substance: [Ru(piplartine)(dppb)(bipy)](PF6)2 [Complex 2]
- stability in coordinating solvents [1]: instability
- stability in noncoordinating solvents [1]: at least 72 h
- time to complete labilization of piplartine ([1]; acetone/water (1:9) mixture): 24 h
- stability in the HPLC eluent [2]: instability

Substance: [Ru(piplartine)(dppf)(bipy)](PF6)2 [Complex 1]
- stability in coordinating solvents [1]: instability
- stability in noncoordinating solvents [1]: at least 72 h
